From patent US20230091472A1, “GALECTIN-3 INHIBITING C-GLYCOSIDE KETONES, ETHERS, AND ALCOHOLS” (GLYCOMIMETICS, INC., priority 2019, published 2023)

Chains of the proteins cited; added tags and fusions are not shown.
UniProt P17931, whole entry: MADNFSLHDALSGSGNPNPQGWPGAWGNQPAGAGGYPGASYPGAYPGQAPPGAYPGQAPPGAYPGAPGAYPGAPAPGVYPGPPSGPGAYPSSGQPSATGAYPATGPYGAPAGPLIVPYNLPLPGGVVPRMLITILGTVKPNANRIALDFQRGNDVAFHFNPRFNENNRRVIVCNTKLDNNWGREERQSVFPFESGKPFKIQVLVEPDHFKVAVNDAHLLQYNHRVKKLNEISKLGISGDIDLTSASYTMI

target: galectin-3 (Homo sapiens, UniProt P17931); test: Galectin-3 Activity - ELISA Assay (inhibition of binding of galectin-3 to a Galβ1-3GlcNAc carbohydrate structure); conditions: read-out: IC50 (μM), Galectin-3 Antagonist Activity; competitive ELISA; galectin-3 binding to immobilized Galβ1-3GlcNAcβ1-3Galβ1-4GlcNAcβ-PAA-biotin polymer; A450 readout
Experimental: Galectin-3 antagonists were evaluated for their ability to inhibit binding of galectin-3 to a Galβ1-3GlcNAc carbohydrate structure. The detailed protocol was as follows. A 1 ug/mL suspension of a Galβ1-3GlcNAcβ1-3Galβ1-4GlcNAcβ-PAA-biotin polymer (Glycotech, catalog number 01-096) was prepared. A 100 uL aliquot of the polymer was added to the wells of a 96-well streptavidin-coated plate (R&D Systems, catalog number CP004). A 100 uL aliquot of 1× Tris Buffered Saline (TBS, Sigma, catalog number T5912-10X) was added to control wells. The polymer was allowed to bind to the streptavidin-coated wells for 1.5 hours at room temperature. The contents of the wells were discarded and 200 uL of 1×TBS containing 1% bovine serum albumin (BSA) was added to each well as a blocking reagent and the plate was kept at room temperature for 30 minutes. The wells were washed three times with 1×TBS containing 0.1% BSA. A serial dilution of test compounds was prepared in a separate V-bottom plate (Corning, catalog number 3897). A 75 uL aliquot of the highest concentration of the compound to be tested was added to the first well in a column of the V-bottom plate then 15 ul were serially transferred into 60 uL 1×TBS through the remaining wells in the column to generate a 1 to 5 serial dilution. A 60 uL aliquot of 2 ug/mL galectin-3 (IBL, catalog number IBATGPO414) was added to each well in the V-bottom plate. A 100 uL aliquot of the galectin-3/test compound mixture was transferred from the V-bottom plate into the assay plate containing the Galβ1-3GlcNAc polymer. Four sets of control wells in the assay plate were prepared in duplicate containing 1) both Galβ1-3GlcNAc polymer and galectin-3, 2) neither the polymer nor galectin-3, 3) galectin-3 only, no polymer, or 4) polymer only, no galectin-3. The plate was gently rocked for 1.5 hours at room temperature. The wells were washed four times with TBS/0.1% BSA. […] The absorbance at 450 nm (A450) was measured using a FlexStation 3 plate reader (Molecular Devices). […]

Row | SMILES | IC50
1 | CO[C@H]1[C@H]([C@@H](COC(C)C)OCc2ccc(Cl)cc2)O[C@H](CO)[C@H](O)[C@@H]1n1cc(-c2cc(F)c(F)c(F)c2)nn1 | 1.18 µM
2 | CO[C@H]1[C@H]([C@H](OCc2ccc(Cl)cc2)[C@@H](O)c2cccs2)O[C@H](CO)[C@H](O)[C@@H]1n1cc(-c2cc(F)c(F)c(F)c2)nn1 | 3.52 µM
3 | CO[C@H]1[C@H]([C@H](OCc2ccc(Cl)cc2)[C@H](O)c2cccs2)O[C@H](CO)[C@H](O)[C@@H]1n1cc(-c2cc(F)c(F)c(F)c2)nn1 | 0.42 µM
